This passage reports GI50 and TGI results from PubChem BioAssay (NCI).

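Interpolation was linear, between the two tested concentrations surrounding the appropriate level; five concentrations were tested over 48 hours in 96-well plates. GI50 = concentration required for 50% inhibition of growth. Definition used: TGI = concentration required for complete inhibition of growth.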

The test system of this assay is MDA-MB-468 breast. Description: NCI tumour cell line growth inhibition, 48 h.

Turning to `BrCCN(CCBr)c1ccc2c(c1)Cc1ccccc1-2`, the GI50 was 1050 nM and the TGI came to 2790 nM.
